Molecules are shown by their SMILES. The list shows a part of the results, in another mix than the full data. Some of these compounds have results that are not shown, active ones among them. The source made the active and inactive calls.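 Rule for the calls: active = thallium flux slope and its plate-corrected score both differing from the plate sample mean at a set confidence after two filtering rounds, in either direction; inactive = the rest.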

Sequences of proteins named here, by UniProt entry; tags and fusion partners are left off.
UniProt Q9H2X9, whole entry: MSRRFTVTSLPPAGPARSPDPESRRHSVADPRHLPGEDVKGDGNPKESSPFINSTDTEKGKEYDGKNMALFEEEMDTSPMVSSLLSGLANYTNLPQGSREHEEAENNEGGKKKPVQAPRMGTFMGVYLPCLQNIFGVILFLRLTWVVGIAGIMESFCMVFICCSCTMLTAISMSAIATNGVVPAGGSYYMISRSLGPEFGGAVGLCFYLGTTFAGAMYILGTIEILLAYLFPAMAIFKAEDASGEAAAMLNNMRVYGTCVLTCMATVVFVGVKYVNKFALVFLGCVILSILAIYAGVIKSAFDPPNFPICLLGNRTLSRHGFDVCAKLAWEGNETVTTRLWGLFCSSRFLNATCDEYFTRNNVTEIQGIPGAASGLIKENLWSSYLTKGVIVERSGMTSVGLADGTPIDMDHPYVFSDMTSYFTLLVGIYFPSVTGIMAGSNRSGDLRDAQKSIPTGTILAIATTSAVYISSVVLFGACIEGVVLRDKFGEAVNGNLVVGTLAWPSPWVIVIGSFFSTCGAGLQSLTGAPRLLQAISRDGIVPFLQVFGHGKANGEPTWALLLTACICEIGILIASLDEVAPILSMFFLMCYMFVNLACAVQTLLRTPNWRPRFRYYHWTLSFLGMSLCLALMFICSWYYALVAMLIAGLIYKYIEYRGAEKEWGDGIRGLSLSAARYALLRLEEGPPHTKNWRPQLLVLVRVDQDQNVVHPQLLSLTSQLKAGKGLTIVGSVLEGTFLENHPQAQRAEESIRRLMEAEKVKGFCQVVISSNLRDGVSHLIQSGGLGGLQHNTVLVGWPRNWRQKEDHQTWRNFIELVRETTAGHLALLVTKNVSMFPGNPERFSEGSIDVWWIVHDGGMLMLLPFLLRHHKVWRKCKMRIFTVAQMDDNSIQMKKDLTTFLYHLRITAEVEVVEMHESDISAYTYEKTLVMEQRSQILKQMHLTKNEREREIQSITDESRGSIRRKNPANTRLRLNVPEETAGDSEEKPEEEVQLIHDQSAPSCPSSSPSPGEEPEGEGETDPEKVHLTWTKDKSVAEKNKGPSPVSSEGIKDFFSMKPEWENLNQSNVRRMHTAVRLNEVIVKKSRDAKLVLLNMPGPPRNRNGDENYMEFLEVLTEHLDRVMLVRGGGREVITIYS

The experiment has as its target Solute carrier family 12 member 5 (Homo sapiens) (UniProt Q9H2X9). Description: modulation of human KCC2 ion transport – cell-based, HEK293 KCC2, FluoZin-2 fluorescence, MLSMR, primary screen (AID 1456). Conditions: KCC2 cells, thallium flux FluoZin-2 fluorescence; at 10 µM; stronger effect = higher value.
Take `C=CCN1CCN(CCOC(=O)C(O)(c2ccccc2)c2ccccc2)CC1`: the B-score was inactive: 1.27. With `CN(C)C1CCCC1OC(=O)C(O)(c1ccccc1)c1ccccc1` (configuration not stated), the B-score is inactive: 0.69. In the case of `Cc1ccccc1C(=O)NCC1(N2CCCCC2)CCCCC1`, the B-score is inactive: 1.01. Consider `CCN(CC)CC(C)C(C)OC(=O)C(O)(c1ccccc1)c1ccccc1` (configuration not stated), for which the B-score is inactive: -0.00666.

Take `COc1ccc(Br)c(C(=O)NCC2(N3CCCCC3)CCCCC2)c1`: the B-score is inactive: -1.12. Regarding `O=C(OC1CN2CCC1CC2)C(CO)(c1ccccc1)c1ccccc1` (configuration not stated), the B-score was inactive: 0.015.

For `COc1cccc(C(=O)NCC2(N3CCCCC3)CCCCC2)c1`, the B-score is inactive: 0.0592.

The values above are taken from PubChem BioAssay AID1456 (Vanderbilt High Throughput Screening Facility, 2008).
